{
  "source": "the supplement of paper PMC8967900",
  "experiment_in_all_cases": "selective drug sensitivity score (sDSS, relative to normal bone marrow) (sDSS (score)); higher = more potent and effective on the cell line relative to normal bone marrow cells",
  "conditions_in_all_cases": "72 h",
  "key": {"380": {"test_system": "380"}, "697": {"test_system": "697"}, "ALL-PO": {"test_system": "ALL-PO"}, "ALL-SIL": {"test_system": "ALL-SIL"}, "CCRF-CEM": {"test_system": "CCRF-CEM"}, "CCRF-HSB2": {"test_system": "CCRF-HSB2"}, "COG-LL-317": {"test_system": "COG-LL-317"}, "COG-LL-319h": {"test_system": "COG-LL-319h"}, "COG-LL-332h": {"test_system": "COG-LL-332h"}, "COG-LL-355h": {"test_system": "COG-LL-355h"}, "COG-LL-394h": {"test_system": "COG-LL-394h"}, "COG-LL-402h": {"test_system": "COG-LL-402h"}, "DND-41": {"test_system": "DND-41"}, "HAL-01": {"test_system": "HAL-01"}, "HPB-ALL": {"test_system": "HPB-ALL"}, "JURKAT": {"test_system": "JURKAT"}, "KARPAS-45": {"test_system": "KARPAS-45"}, "KASUMI-10": {"test_system": "KASUMI-10"}, "KASUMI-2": {"test_system": "KASUMI-2"}, "KASUMI-9": {"test_system": "KASUMI-9"}, "KOPN-8": {"test_system": "KOPN-8"}, "LC4-1": {"test_system": "LC4-1"}, "MHH-CALL-2": {"test_system": "MHH-CALL-2"}, "MHH-CALL-3": {"test_system": "MHH-CALL-3"}, "MHH-CALL-4": {"test_system": "MHH-CALL-4"}, "MN-60": {"test_system": "MN-60"}, "MOLT-14": {"test_system": "MOLT-14"}, "MOLT-16": {"test_system": "MOLT-16"}, "MOLT-4": {"test_system": "MOLT-4"}, "NALL-1": {"test_system": "NALL-1"}, "NALM-16": {"test_system": "NALM-16"}, "NALM-6": {"test_system": "NALM-6"}, "P12-ICHIKAWA": {"test_system": "P12-ICHIKAWA"}, "P30-OHKUBO": {"test_system": "P30-OHKUBO"}, "PEER": {"test_system": "PEER"}, "PF-382": {"test_system": "PF-382"}, "RCH-ACV": {"test_system": "RCH-ACV"}, "REH": {"test_system": "REH"}, "RPMI-8402": {"test_system": "RPMI-8402"}, "SEM cells": {"test_system": "SEM cells"}, "SUP-B15": {"test_system": "SUP-B15"}, "TANOUE": {"test_system": "TANOUE"}, "TMD5": {"test_system": "TMD5"}},
  "data": [
    {"compound": "NCc1ccc(OCCCc2sc(-c3ccc4c(c3)/C(=N/Nc3nc5ccccc5s3)CCC4)nc2C(=O)O)cc1", "note": "[WEHI-539] (top concentration 2500 nM)", "values": [
      {"measurement": "selective drug sensitivity score", "setting": "380", "value": -0.02},
      {"measurement": "selective drug sensitivity score", "setting": "697", "value": -0.02},
      {"measurement": "selective drug sensitivity score", "setting": "ALL-PO", "value": -0.02},
      {"measurement": "selective drug sensitivity score", "setting": "ALL-SIL", "value": 10.2},
      {"measurement": "selective drug sensitivity score", "setting": "CCRF-CEM", "value": 8.38},
      {"measurement": "selective drug sensitivity score", "setting": "CCRF-HSB2", "value": 4.48},
      {"measurement": "selective drug sensitivity score", "setting": "COG-LL-317", "value": 11},
      {"measurement": "selective drug sensitivity score", "setting": "COG-LL-319h", "value": 5.28},
      {"measurement": "selective drug sensitivity score", "setting": "COG-LL-332h", "value": 3.98},
      {"measurement": "selective drug sensitivity score", "setting": "COG-LL-355h", "value": 7.58},
      {"measurement": "selective drug sensitivity score", "setting": "COG-LL-394h", "value": 2.78},
      {"measurement": "selective drug sensitivity score", "setting": "COG-LL-402h", "value": 6.78},
      {"measurement": "selective drug sensitivity score", "setting": "DND-41", "value": 6.88},
      {"measurement": "selective drug sensitivity score", "setting": "HAL-01", "value": -0.02},
      {"measurement": "selective drug sensitivity score", "setting": "HPB-ALL", "value": 12.3},
      {"measurement": "selective drug sensitivity score", "setting": "JURKAT", "value": 2.38},
      {"measurement": "selective drug sensitivity score", "setting": "KARPAS-45", "value": 11.6},
      {"measurement": "selective drug sensitivity score", "setting": "KASUMI-10", "value": 3.58},
      {"measurement": "selective drug sensitivity score", "setting": "KASUMI-2", "value": -0.02},
      {"measurement": "selective drug sensitivity score", "setting": "KASUMI-9", "value": -0.02},
      {"measurement": "selective drug sensitivity score", "setting": "KOPN-8", "value": -0.02},
      {"measurement": "selective drug sensitivity score", "setting": "LC4-1", "value": -0.02},
      {"measurement": "selective drug sensitivity score", "setting": "MHH-CALL-2", "value": 0.08},
      {"measurement": "selective drug sensitivity score", "setting": "MHH-CALL-3", "value": -0.02},
      {"measurement": "selective drug sensitivity score", "setting": "MHH-CALL-4", "value": 2.18},
      {"measurement": "selective drug sensitivity score", "setting": "MN-60", "value": 0.98},
      {"measurement": "selective drug sensitivity score", "setting": "MOLT-14", "value": 2.48},
      {"measurement": "selective drug sensitivity score", "setting": "MOLT-16", "value": -0.02},
      {"measurement": "selective drug sensitivity score", "setting": "MOLT-4", "value": 8.38},
      {"measurement": "selective drug sensitivity score", "setting": "NALL-1", "value": -0.02},
      {"measurement": "selective drug sensitivity score", "setting": "NALM-16", "value": -0.02},
      {"measurement": "selective drug sensitivity score", "setting": "NALM-6", "value": 1.28},
      {"measurement": "selective drug sensitivity score", "setting": "P12-ICHIKAWA", "value": 10.1},
      {"measurement": "selective drug sensitivity score", "setting": "P30-OHKUBO", "value": -0.02},
      {"measurement": "selective drug sensitivity score", "setting": "PEER", "value": 9.48},
      {"measurement": "selective drug sensitivity score", "setting": "PF-382", "value": 2.68},
      {"measurement": "selective drug sensitivity score", "setting": "RCH-ACV", "value": -0.02},
      {"measurement": "selective drug sensitivity score", "setting": "REH", "value": 2.18},
      {"measurement": "selective drug sensitivity score", "setting": "RPMI-8402", "value": 4.58},
      {"measurement": "selective drug sensitivity score", "setting": "SEM cells", "value": -0.02},
      {"measurement": "selective drug sensitivity score", "setting": "SUP-B15", "value": 3.78},
      {"measurement": "selective drug sensitivity score", "setting": "TANOUE", "value": 0.38},
      {"measurement": "selective drug sensitivity score", "setting": "TMD5", "value": -0.02}
    ]}
  ]
}
